Test results: patent publication US8557308B2, “Andrographis paniculata extract” (Nutrition Science Partners Limited, priority 2007, dated 2013)

Test system: mildly to moderately active ulcerative colitis
Experiment: Randomized, double-dummy, active controlled 8-week clinical trial in ulcerative colitis
Format: in vivo, human
Protocol: 120 patients with colonoscopy-confirmed mildly to moderately active ulcerative colitis were assigned to two groups (60 patients/group). […] All other medications were excluded. The therapeutic effects were assessed biweekly using a scale similar to the partial Mayo Scoring System, and the clinical symptom score reduction (≧50% reduction in symptoms) was calculated. Scores were then retrospectively calculated using the standard partial Mayo scores (PMS), clinical response (improvement ≧2 points or final score of 0) and remission (≦1 PMS score at week 8). Colonoscopies at the beginning and at the end of treatment were rated with a modified Baron score, and biopsies taken during colonoscopy were graded histologically with a scale of 0-3.

Nc1ccc(O)c(C(=O)O)c1 [Etiasa, 5-amino-2-hydroxybenzoic acid]
patients showing decrease of histological inflammation scores by 25-50% (biopsies, week 8, number of evaluated patients): 6 of the 15 | patients entering with elevated C-reactive protein levels that showed normal levels (week 8): 4/6
